Measured values reported in patent US20250375499A1 (FLAGSHIP PIONEERING INNOVATIONS VII, published 2025).

Chains of the proteins cited; added tags and fusions are not shown. A line that says so, or that is headed by a name, gives the form on record, which may keep a tag or linker. Residues count along the entry.
UniProt O43557, 83-240 limits assumed: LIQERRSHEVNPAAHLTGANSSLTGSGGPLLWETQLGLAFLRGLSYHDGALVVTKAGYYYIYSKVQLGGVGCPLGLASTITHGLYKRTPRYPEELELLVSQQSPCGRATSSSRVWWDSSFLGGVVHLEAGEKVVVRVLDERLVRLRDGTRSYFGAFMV
recombinant human TNFα (Acro Bio TNA-H5228), one chain, as listed by the source limits assumed: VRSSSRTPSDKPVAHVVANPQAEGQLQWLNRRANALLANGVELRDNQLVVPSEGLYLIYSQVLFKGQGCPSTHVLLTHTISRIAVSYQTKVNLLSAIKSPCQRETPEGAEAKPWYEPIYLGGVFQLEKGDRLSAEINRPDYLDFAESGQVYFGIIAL

Columns and labels:
[1] = molecular target: T1, recombinant human TL1A (Acro Bio TLA-H5244), plate bound (human, UniProt O95150 72-251, limits assumed); experiment: ELISA: plate coated with recombinant human TL1A (2 µg/mL), Fc-tagged protein titrated 3-fold from 10 nM, anti-human Fc HRP, OD 450 nm background subtracted
T1 construct: Bought protein; also called hTL1A; Tumor Necrosis Factor Ligand Superfamily Member 15
T1 sequence: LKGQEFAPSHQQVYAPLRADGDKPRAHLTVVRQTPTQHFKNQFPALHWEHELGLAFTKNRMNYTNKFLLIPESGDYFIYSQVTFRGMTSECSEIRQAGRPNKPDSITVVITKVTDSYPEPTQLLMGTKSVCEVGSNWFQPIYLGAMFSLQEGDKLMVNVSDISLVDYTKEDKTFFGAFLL

[2] = molecular target: T2, recombinant human TNFα (Acro Bio TNA-H5228) (human); experiment: ELISA: plate coated with recombinant human TNFα (2 µg/mL), Fc-tagged protein titrated 3-fold from 10 nM, anti-human Fc HRP, OD 450 nm background subtracted
T2 construct: Bought protein; also called hTNFα

[3] = molecular target: T3, recombinant human LIGHT (Acro Bio LIT-H5242) (human, UniProt O43557, in part); experiment: ELISA: plate coated with recombinant human LIGHT (2 µg/mL), Fc-tagged protein titrated 3-fold from 10 nM, anti-human Fc HRP, OD 450 nm background subtracted
T3 construct: Bought protein; also called hLIGHT; Tumor Necrosis Factor Ligand Superfamily Member 14

[4] = molecular target: T4, recombinant human FASL (Acro Bio HAL-H5241) (human, UniProt P48023 134-281, limits assumed); experiment: ELISA: plate coated with recombinant human FASL (2 µg/mL), Fc-tagged protein titrated 3-fold from 10 nM, anti-human Fc HRP, OD 450 nm background subtracted
T4 construct: Bought protein; also called hFASL; FAS Ligand
T4 sequence: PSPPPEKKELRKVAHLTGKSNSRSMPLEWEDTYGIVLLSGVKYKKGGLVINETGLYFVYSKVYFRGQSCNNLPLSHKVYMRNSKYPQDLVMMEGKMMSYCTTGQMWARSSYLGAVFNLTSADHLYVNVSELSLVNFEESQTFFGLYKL

B1: hFc (other)
Fc chain: AESKYGPPCPPCPAPEAAGGPSVFLFPPKPKDTLMISRTPEVTCVVVDVSQEDPEVQFNWYVDGVEVHNAKTKPREEQFNSTYRVVSVLTVLHQDWLNGKEYKCKVSNKGLPSSIEKTISKAKGQPREPQVYTLPPSQEEMTKNQVSLTCLVKGFYPSDIAVEWESNGQPENNYKTTPPVLDSDGSFFLYSRLTVDKSRWQEGNVFSCSVMHEALHNHYTQKSLSLSLG
notes: also called human IgG4 Fc
binding result [1]: no binding (tested: 10 nM (LOG[Dose] 1)) | binding result [2]: no binding (tested: 10 nM (LOG[Dose] 1)) | binding result [3]: no binding (tested: 10 nM (LOG[Dose] 1)) | binding result [4]: no binding (tested: 10 nM (LOG[Dose] 1))
